Each structure is given as a SMILES string. Positions of bridges follow the written chain, without caps; N, C: chain ends. Residues, ends and D or L forms follow the SMILES beside them.

This is an account of results in patent publication US7998924B2, “Compounds that bind to p185 and methods of using the same” (The Trustees of The University of Pennsylvania, priority 2001, dated 2011).

The target of this assay is T1, HER2 receptor (Homo sapiens, UniProt P04626).
T1 construct: Recombinant purified HER2 receptor composed of the ectodomain of HER2 fused to the Fc of human IgG; purchased Xcyte Therapeutics, Seattle, Wash; (provided by Dr. Che Law; a gift, not a catalogue product)
In words: Biacore (surface plasmon resonance) binding of peptides to immobilized HER2. The text has this:
Binding of AHNP has been studies by means of surface plasmon resonance (Biacore) technology. In Biacore experiments, one of the interacting molecules (termed the ligand) is immobilized on the sensor surface, and the other interactant (termed the analyte) is continuously flown over that surface in a micro-flow cell. The interaction between the ligand and the analyte are monitored using a light source that is reflected at the immobilized chip. Binding of the analyte to the immobilized ligand changes the resonance angle of the reflected light due to changes in the refractive index of the surface. The response is plotted in real time in the form of sensorgram curves. The advantage with this approach is its sensitivity, ease of use, and ability to perform experiments with few microgram quantities of proteins and peptides. In addition, the kinetic binding studies reveal association and disassociation rates of the analyte which may be more relevant for understanding the pharmacokinetics of drug-receptor interactions.
Binding experiments were performed with the surface plasmon resonance based biosensor instrument Biacore 3000 (Biacore AB, Uppsala, Sweden) at 25° C. […] Peptides were injected at variable concentrations at 20 μL/min flow rate and binding to the HER2 receptor immobilized on the chip was monitored in real time. […]
(In SPR one partner is held on a chip, and binding of the other changes the refractive index at the surface.)

What is called koff is the rate constant with which the complex falls apart. In general, kon refers to the second-order rate constant of association. Take `CSCC[C@H](NC(=O)[C@H](Cc1ccc(O)cc1)NC(=O)[C@@H]1CSSC[C@H](NC(=O)[C@@H](N)Cc2ccccc2)C(=O)N[C@@H](CC(=O)O)C(=O)NCC(=O)N[C@@H](Cc2ccccc2)C(=O)N[C@@H](Cc2ccc(O)cc2)C(=O)N[C@@H](C)C(=O)N1)C(=O)N[C@@H](CC(=O)O)C(=O)N[C@H](C(=O)N[C@@H](CCCCN)C(N)=O)C(C)C` [Peptide 5] (H-FCDGFYACYMDVK-NH2; disulfide 2-8): the koff (read-out: binding to HER2 koff) worked out at 0.000512 s⁻¹. Besides, the kon (read-out: binding to HER2 kon) was found to be 617 M⁻¹ s⁻¹.
